Measurements taken from ChEMBL document CHEMBL3632608, “Effects of alkyl side chains and terminal hydrophilicity on vitamin D receptor (VDR) agonistic activity based on the diphenylpentane skeleton” (Bioorg Med Chem Lett, 2015).
Activity calls are given as the source filed them. No cut-off for these calls is given here.

Experiments:
Assay type in all cases: cell-based
[1] = target: T1, Vitamin D3 receptor (Homo sapiens) (UniProt P11473); assay: Agonist activity at human VDR expressed in HEK293 cells co-expressing CMX-GAL4N and TK-MH100x4-LUC assessed as induction of transcriptional activity at 3 uM by beta-galactosidase reporter gene assay relative to 1alpha,25(OH)2VD3
T1 sequence (whole entry): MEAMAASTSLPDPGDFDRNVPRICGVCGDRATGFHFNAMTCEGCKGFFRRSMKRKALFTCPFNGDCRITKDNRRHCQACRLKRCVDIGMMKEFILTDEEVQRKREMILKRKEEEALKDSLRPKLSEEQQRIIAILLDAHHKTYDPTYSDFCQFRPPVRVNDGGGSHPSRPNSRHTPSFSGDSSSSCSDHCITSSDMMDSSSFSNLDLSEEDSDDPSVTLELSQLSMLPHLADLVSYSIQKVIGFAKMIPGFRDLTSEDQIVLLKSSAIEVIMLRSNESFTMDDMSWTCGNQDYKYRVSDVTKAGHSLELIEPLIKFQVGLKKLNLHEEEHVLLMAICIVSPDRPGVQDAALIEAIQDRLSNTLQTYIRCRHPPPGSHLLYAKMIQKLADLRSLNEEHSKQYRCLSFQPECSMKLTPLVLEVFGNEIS

[2] = target: T1, Vitamin D3 receptor (Homo sapiens); assay: Antagonist activity at human VDR expressed in HEK293 cells co-expressing CMX-GAL4N and TK-MH100x4-LUC assessed as inhibition of 1alpha,25(OH)2VD3-induced transcriptional activity up to 10 uM by beta-galactosidase reporter gene assay
[3] = target: T1, Vitamin D3 receptor (Homo sapiens); assay: Agonist activity at human VDR expressed in HEK293 cells co-expressing CMX-GAL4N and TK-MH100x4-LUC assessed as induction of transcriptional activity at 10 uM by beta-galactosidase reporter gene assay relative to 1alpha,25(OH)2VD3
[4] = target: T1, Vitamin D3 receptor (Homo sapiens); assay: Agonist activity at VDR in human HL60 cells assessed as induction of cell differentiation at 10 uM by NBT reduction assay; conditions: HL-60

Row | Activity [1] | inhibition [2] | Activity [3] | Activity [4] [%] | Structure (SMILES)
1 | inactive | inactive | inactive | – | CCCCCCCCCCOC(C)(C)[C@H](O)COc1ccc(C(CC)(CC)c2ccc(OC[C@@H](O)CO)c(C)c2)cc1C
2 | inactive | inactive | inactive | – | CCCCCCCCOC(C)(C)[C@H](O)COc1ccc(C(CC)(CC)c2ccc(OC[C@@H](O)CO)c(C)c2)cc1C
3 | 13% | inactive | – | 22.2 | CCCCCCCCOC(C)(C)[C@@H](O)COc1ccc(C(CC)(CC)c2ccc(OC[C@@H](O)CO)c(C)c2)cc1C
4 | inactive | inactive | inactive | 6.9 | CCCCCCCCCCOC(C)(C)[C@@H](O)COc1ccc(C(CC)(CC)c2ccc(OC[C@@H](O)CO)c(C)c2)cc1C
